From patent US4483989A, “Synthesis of pyrido[4,3-b]carbazole derivatives” (priority 1973, dated 1984)

Conditions: mouse, in vivo, ip
From the text: The mice were randomized in each experimental series. A first routine experiment enable the death rate by toxicity to be determined and thus established the sublethal doses.
To evaluate the therapeutic activity of the compounds of the invention, doses of said compound were expressed basing them on the 30 days sublethal dose which was fixed at 1.

With “9-hydroxy-2(β-diisopropylamino-ethyl)-ellipticiniu acetate” the “DLo (I.P.)” value was 10 mg/kg.
